# Tests used:
# Sequences of proteins named here, by UniProt entry; tags and fusion partners are left off. A change or cut given only in a name is not applied to a line headed by its entry.
# UniProt P41145: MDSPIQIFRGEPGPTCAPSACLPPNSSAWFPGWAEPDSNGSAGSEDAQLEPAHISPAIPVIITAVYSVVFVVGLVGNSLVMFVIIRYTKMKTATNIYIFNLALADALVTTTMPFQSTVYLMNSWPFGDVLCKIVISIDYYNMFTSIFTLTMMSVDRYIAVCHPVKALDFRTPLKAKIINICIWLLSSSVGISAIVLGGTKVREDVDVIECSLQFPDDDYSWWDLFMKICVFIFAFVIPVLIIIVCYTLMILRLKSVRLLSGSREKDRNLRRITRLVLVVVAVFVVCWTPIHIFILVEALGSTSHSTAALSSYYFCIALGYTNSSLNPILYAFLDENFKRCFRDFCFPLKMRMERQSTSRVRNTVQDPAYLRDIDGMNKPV
# kappa opioid = kappa opioid (Homo sapiens, UniProt P41145); assay: kappa opioid affinity
# rat = rat paw pressure test for analgesia; conditions: iv
# prostate [1] = assay: prostate weights and microscopy after oral administration for 4 weeks; conditions: for Prostate Wt (g) / Prostate Wt (g)/100 (g) Body Wt / Prostate Wt (g)/Brain Wt (g): oral, male Beagle dogs, mean + standard error, N=3
# prostate [2] = assay: prostate weights and microscopy after continuous intravenous infusion for 4 weeks; conditions: for Prostate Wt (g) / Prostate Wt (g)/100 (g) Body Wt / Prostate Wt (g)/Brain Wt (g): continuous intravenous infusion, male Beagle dogs, mean + standard error, N=3
structure (smiles),measurement,setting,value
CN(C(=O)Cc1cccc2occc12)[C@H]1CC[C@@]2(CCCO2)C[C@@H]1N1CCCC1,Ki,kappa opioid; kappa opioid affinity,0.73 nM
same,μ/kappa ratio,kappa opioid; selectivity,798
same,cytotoxicity,cytotoxicity (statement),not cytotoxic
same,MPE50,rat,0.030
same,Prostate Wt (g),prostate [1]; 50 μg/kg,4.5 + 0.20 g
same,Prostate Wt (g)/100 (g) Body Wt,prostate [1]; 50 μg/kg,0.037 + 0.0003 g/100 g
same,Prostate Wt (g)/Brain Wt (g),prostate [1]; 50 μg/kg,0.061 + 0.0029 g/g
same,Prostate Wt (g),prostate [1]; 200 μg/kg,3.7 + 0.68 g
same,Prostate Wt (g)/100 (g) Body Wt,prostate [1]; 200 μg/kg,0.029 + 0.0038 g/100 g
same,Prostate Wt (g)/Brain Wt (g),prostate [1]; 200 μg/kg,0.048 + 0.0111 g/g
same,Prostate Wt (g),prostate [1]; 600 μg/kg,4.6 + 0.57 g
same,Prostate Wt (g)/100 (g) Body Wt,prostate [1]; 600 μg/kg,0.041 + 0.0049 g/100 g
same,Prostate Wt (g)/Brain Wt (g),prostate [1]; 600 μg/kg,0.058 + 0.0065 g/g
same,"prostatic atrophy, microscopic evaluation","prostate [1]; oral, 50, 200 or 600 μg/kg/day, dogs, confirmed by blinded histologic review",Prostatic atrophy was noted microscopically in all dogs
same,Prostate Wt (g),prostate [2]; 1 μg/kg/hr,6.0 + 0.80 g
same,Prostate Wt (g)/100 (g) Body Wt,prostate [2]; 1 μg/kg/hr,0.054 + 0.0071 g/100 g
same,Prostate Wt (g)/Brain Wt (g),prostate [2]; 1 μg/kg/hr,0.076 + 0.0125 g/g
same,Prostate Wt (g),prostate [2]; 35 μg/kg/hr,6.2 + 1.55 g
same,Prostate Wt (g)/100 (g) Body Wt,prostate [2]; 35 μg/kg/hr,0.055 + 0.0116 g/100 g
same,Prostate Wt (g)/Brain Wt (g),prostate [2]; 35 μg/kg/hr,0.074 + 0.0179 g/g
same,Prostate Wt (g),prostate [2]; 5 mg/kg/hr,5.2 + 0.48 g
same,Prostate Wt (g)/100 (g) Body Wt,prostate [2]; 5 mg/kg/hr,0.046 + 0.0035 g/100 g
same,Prostate Wt (g)/Brain Wt (g),prostate [2]; 5 mg/kg/hr,0.071 + 0.0090 g/g
same,"prostatic atrophy, blinded histologic review","prostate [2]; continuous intravenous infusion, 1, 5 or 35 μg/kg/hour, dogs",prostatic atrophy in all dogs

# — patent US5489607A, “Use of enadoline in the treatment of benign prostatic enlargement” (dated 1996)
